# scFv variants of Ab-14 (light chain) against a SARS-CoV-2 spike peptide

Antigen: PDVDLGDISGINAS, a 14-residue peptide of the SARS-CoV-2 spike HR2 region.

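The starting antibody came from a phage panning campaign against this peptide. This is the validation round: designs drawn from the data on random variants, tested in the same kind of assay. Several design methods are mixed in this list. In AlphaSeq, yeast of one mating type display the scFv and yeast of the other type display the target. Pairs that bind mate more often; barcode pairs of the diploids are counted by sequencing. Each replicate has its own calibration line, from reference interactions of the BCL2 family. The assay was run in six technical replicates.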

Parent scFv Ab-14: VH joined to VL by three GGGGS repeats. Changes lie in the light chain CDRs alone.
VH: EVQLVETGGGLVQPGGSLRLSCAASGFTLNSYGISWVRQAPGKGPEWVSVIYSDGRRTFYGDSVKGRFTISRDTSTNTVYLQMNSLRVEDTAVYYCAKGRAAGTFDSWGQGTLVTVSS
VL: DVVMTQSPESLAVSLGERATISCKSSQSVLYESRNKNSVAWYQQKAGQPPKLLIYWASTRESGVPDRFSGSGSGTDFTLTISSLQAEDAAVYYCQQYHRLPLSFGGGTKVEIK

The parent's light chain CDRs are KSSQSVLYESRNKNSVA, WASTRES, QQYHRLPLS; each variant's own CDRs replace them letter for letter. This list holds designs with more than six substitutions. The Kd shown is the geometric mean over detected replicates; a lower Kd is a better binder. An entry "nd" has no value in the source: the pair was not observed among the diploids in any replicate. This suggests poor binding but is not conclusive. Order: sorted from the lowest average up, undetected variants last. The range of this assay differs from that of the first round, and the authors advise against merging the two.

Variant NSSGPMMFESRNKNSVA / HASTREE / QQYERLPLS gave 760 pM (6 of 6 replicates; controls 1 of 18). With KVSPSWLYEDRNKNSVA / QASQRCS / QQYHRLPLS the result was 980 pM (6 of 6 replicates; controls 1 of 18). With KFMTSMPYESRNKNSVA / EASTREL / QQYHRLPLS the result was 1.2 nM (6 of 6 replicates; controls 1 of 18). With KQQQSGMMESRNDNSVA / HASTRLS / QQYHRLPLS the result was 1.2 nM (6 of 6 replicates; controls 0 of 18). With KLGSATRFESSNKASIA / DNSTREA / QQYHRLPLS the result was 1.3 nM (6 of 6 replicates; controls 1 of 18).

Variant KLEQSMLYESRNSNSVA / NASTREH / QQYHRLPLM gave 1.5 nM (6 of 6 replicates; controls 1 of 18). Variant FLAMGSYQKYRHENNIA / EANMRAQ / QQYNRLPFQ gave 1.7 nM (6 of 6 replicates; controls 0 of 18). Variant TLGDVTMQLSRNKNSVA / DASTSED / QQYHRLPLS gave 2.3 nM (6 of 6 replicates; controls 0 of 18). With NLNVSEDQWPSSKNAIA / QTTCRVL / QQYVHLPLS the result was 2.3 nM (6 of 6 replicates; controls 1 of 18). With RLQADDNGYEGMRNNVA / DGGMVRM / QQYARLPLM the result was 2.6 nM (6 of 6 replicates; controls 1 of 18).

For MGLESYQQGVHEMNNVA / EGDQKLD / QQYYRLPLL, the assay gave 2.7 nM (6 of 6 replicates; controls 3 of 18). For TLYGLSMSMSKNKNNVA / EMTTRED / QQYDRLPLV, the assay gave 2.9 nM (1 of 6 replicates; controls 0 of 18). Variant KLSGSMLYEQRMKNSVA / QASQRMS / QDYHRLPLS showed 3.0 nM (6 of 6 replicates; controls 4 of 18). For MVNGIMDHLSKQTNNVA / ETETRNE / QQYDRLPLS, the assay gave 3.8 nM (6 of 6 replicates; controls 0 of 18). Variant NIRIEDKSEHNNANNVA / STDCRCD / QQYFMLPLM showed 4.7 nM (6 of 6 replicates; controls 3 of 18).

For HFSQETMEFMSQNKAIA / EVTTTMT / QQYARLPFI, the assay gave 4.7 nM (6 of 6 replicates; controls 1 of 18). For KWFQSVLLESMLVNSVA / NASQRED / QQYHRLPLS, the assay gave 6.5 nM (6 of 6 replicates; controls 0 of 18). Variant KLGSSSRFESSNKASIA / DNSTRES / QQYHRLPLS showed 6.8 nM (6 of 6 replicates; controls 3 of 18). Variant SLMQVGGYESNNKRSIA / DLRTRES / QQYHRLPLS showed 7.6 nM (6 of 6 replicates; controls 2 of 18). Variant KLYDMAAVTMQNIRNVA / DNSTREA / QQYHRLPLS gave 7.7 nM (6 of 6 replicates; controls 2 of 18).

For MLSQMWAIGQKVSNSVA / QASQRFN / QQYDRLPLE, the assay gave 7.8 nM (6 of 6 replicates; controls 0 of 18). Variant KLSQYVGGESRNKSSLA / DNDTRES / QQYHRLPLS gave 8.0 nM (6 of 6 replicates; controls 0 of 18). Variant TIGQMLMQGIRNRSNVA / EVSERLN / QQYDRLPLA gave 11 nM (6 of 6 replicates; controls 0 of 18). Variant KIYQVGLGSQKIMRNIA / ETSTRCT / QSYQRLPLS showed 11 nM (6 of 6 replicates; controls 1 of 18). With MMSMGSLGGMRARNNVA / QEETREK / QQYHRLPLI the result was 14 nM (3 of 6 replicates; controls 1 of 18).

Variant YMSMYLDMQDDIQCGVA / DANVRNA / QQYQRLPLS showed 14 nM (6 of 6 replicates; controls 0 of 18). With MMSQVWGLGQRHRNNVA / QTSMRET / QQYDRLPLI the result was 18 nM (6 of 6 replicates; controls 0 of 18). For KLLQSVQYGSRALNSVA / QMETRED / QQYHRLPLA, the assay gave 21 nM (6 of 6 replicates; controls 0 of 18). Variant MLSDLVKMGVRDTNSVA / DNSTRGS / QQYDRLPLS showed 34 nM (6 of 6 replicates; controls 1 of 18). For TIAQSMLYLSNLKNSIA / QAETRES / QQYHRLPIS, the assay gave 35 nM (6 of 6 replicates; controls 3 of 18).

Variant KLQGSKEYLSRWKNSVA / HASVREV / QQYHRLPLS showed 40 nM (6 of 6 replicates; controls 1 of 18). Variant KLRLHNLDFYEVENSIA / GESNRAH / QQYYRLPLN showed 50 nM (6 of 6 replicates; controls 0 of 18). For IVSQLMLWGMHVKNSIA / EAETRLN / QQYDRLPLF, the assay gave 93 nM (3 of 6 replicates; controls 0 of 18). For KVSEFMKGLMMRKDNIA / DNNTRSN / QQYDRLPLS, the assay gave 100 nM (6 of 6 replicates; controls 0 of 18). For NMNVGLNFGKNQEQAIA / EVEDRES / QQYARLPLT, the assay gave 150 nM (5 of 6 replicates; controls 0 of 18).

For KIGATLNQLMHQKNNVA / DLVMREN / QQYFRLPLS, the assay gave 220 nM (1 of 6 replicates; controls 0 of 18). Variant HVSESTFAQSKMRNSVA / ENSTRES / QQYDRLPLS gave 260 nM (6 of 6 replicates; controls 3 of 18). With KLSMSMLMESRAKNSVA / ENSTRES / QHYHRLPLS the result was 10 µM (2 of 6 replicates; controls 2 of 18). Variant KMETYSQDNRLTISAIA / EAQTIYQ / QQYGRLPLS showed nd (0 of 6 replicates; controls 0 of 18). Variant KLSGFYRVETRNKNSVA / DNSTRES / QDYDRLPLS gave nd (0 of 6 replicates; controls 0 of 18).

With MINMEIGIEDRKWQAVA / SASVRAS / QQYGRLPFS the result was nd (0 of 6 replicates; controls 0 of 18).

3 of these entries, quoted again:

| CDR-L1 | CDR-L2 | CDR-L3 | Kd (apparent) | seen in | control signals |
|---|---|---|---|---|---|
| MLSQMWAIGQKVSNSVA | QASQRFN | QQYDRLPLE | 7.8 nM | 6/6 | 0/18 |
| KLSQYVGGESRNKSSLA | DNDTRES | QQYHRLPLS | 8.0 nM | 6/6 | 0/18 |
| MMSMGSLGGMRARNNVA | QEETREK | QQYHRLPLI | 14 nM | 3/6 | 1/18 |

The authors' rule: three or more of the six replicates give a measured affinity, fewer mean a poor binder. Three control strains display no target. For all light chain designs, 4% of the pairings with them gave a signal, with a median of 430 nM and one signal in twenty below 38 nM, so weak values seen in few replicates may be background. For each scFv, signals with the empty controls are counted beside the result.

Values reported by Li et al. 2023, doi:10.1038/s41467-023-39022-2 (FLAb copy).